Molecular target: BTK (Homo sapiens (Human), UniProt Q06187)
Assay: Omnia assay for potency assessment against BTK
Type: biochemical
Conditions: [BTK]=5 nM, read-out: BTK Inhibition (IC50)

Chains of the proteins cited; added tags and fusions are not shown. Lines headed by an entry give the natural chain unless they say otherwise; changes in a name come on top.
UniProt Q06187: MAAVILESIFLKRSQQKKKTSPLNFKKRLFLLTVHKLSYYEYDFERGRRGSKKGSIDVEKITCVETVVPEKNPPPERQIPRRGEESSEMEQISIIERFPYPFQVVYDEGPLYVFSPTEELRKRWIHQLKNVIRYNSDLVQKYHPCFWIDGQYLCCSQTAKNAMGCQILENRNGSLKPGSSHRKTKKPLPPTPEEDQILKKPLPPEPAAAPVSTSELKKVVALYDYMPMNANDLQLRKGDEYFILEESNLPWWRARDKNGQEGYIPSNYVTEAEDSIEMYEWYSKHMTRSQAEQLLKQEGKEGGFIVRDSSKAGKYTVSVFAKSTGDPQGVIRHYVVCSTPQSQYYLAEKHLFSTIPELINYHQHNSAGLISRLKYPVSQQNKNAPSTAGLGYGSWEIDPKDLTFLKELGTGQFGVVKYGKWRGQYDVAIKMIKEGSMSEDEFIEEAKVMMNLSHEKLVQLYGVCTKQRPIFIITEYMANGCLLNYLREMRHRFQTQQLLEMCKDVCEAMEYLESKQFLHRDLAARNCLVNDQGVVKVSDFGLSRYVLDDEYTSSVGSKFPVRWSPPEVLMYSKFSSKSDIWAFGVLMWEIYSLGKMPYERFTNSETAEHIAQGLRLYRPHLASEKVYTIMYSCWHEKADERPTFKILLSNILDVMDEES

C=CC(=O)Nc1cccc(Nc2nc(Nc3ccc(OCCOC)cc3)ncc2F)c1 [Compound I-182, N-(3-(5-fluoro-2-(4-(2-methoxyethoxy)phenylamino)pyrimidin-4-ylamino)phenyl)acrylamide]
IC50: < 10 nM
